# Membrane permeability of cyclic peptides

Collected by the curators of CycPeptMPDB (Li et al. 2023) from Townsend et al. 2020, doi:10.26434/chemrxiv.13335941.v1.

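Conditions beyond the assay type are not listed; see the original paper. The list need not hold all peptides of the study. Peptides that the database sets to -10, its floor, are left out.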

PAMPA is the parallel artificial membrane permeability assay, which has no cells and reads passive diffusion. Permeability is in 10^-6 cm/s, converted from the database's log10 values; higher is more permeable.

For CC(C)C[C@H]1NC(=O)[C@@H](C)NC(=O)[C@H]2CCCN2C(=O)[C@H](Cc2ccccc2)NC(=O)CN(Cc2ccccc2)C(=O)[C@@H]2CCCN2C(=O)CN(Cc2ccccc2)C1=O the data give PAMPA 0.29 × 10^-6 cm/s.
For CC(C)C[C@@H]1NC(=O)[C@H]2CCCN2C(=O)[C@H](CC(C)C)NC(=O)[C@H](CC(C)C)N(C)C(=O)[C@@H](C)NC(=O)[C@H](Cc2ccccc2)NC1=O the data give PAMPA 1 × 10^-6 cm/s.
For CC(C)C[C@@H]1NC(=O)[C@H](C)N(C)C(=O)[C@@H]2CCCN2C(=O)[C@H](Cc2ccccc2)NC(=O)CN(Cc2ccccc2)C(=O)[C@H]2CCCN2C(=O)[C@@H](CC(C)C)N(C)C1=O the data give PAMPA 1.9 × 10^-6 cm/s.
For CC(C)C[C@H]1NC(=O)[C@H](C)NC(=O)[C@H](Cc2ccccc2)NC(=O)CN(Cc2ccccc2)C(=O)[C@H]2CCCN2C(=O)[C@@H](CC(C)C)NC1=O the data give PAMPA 0.21 × 10^-6 cm/s.
For CC(C)C[C@@H]1NC(=O)[C@@H](CC(C)C)NC(=O)[C@@H](C)N(C)C(=O)[C@H]2CCCN2C(=O)[C@H](Cc2ccccc2)NC(=O)[C@H](CC(C)C)N(C)C(=O)[C@H]2CCCN2C1=O the data give PAMPA 5.9 × 10^-6 cm/s.
For CC(C)C[C@@H]1NC(=O)[C@@H](C)N(C)C(=O)[C@@H]2CCCN2C(=O)[C@H](Cc2ccccc2)NC(=O)CN(Cc2ccccc2)C(=O)[C@H]2CCCN2C(=O)[C@@H](CC(C)C)NC1=O the data give PAMPA 0.68 × 10^-6 cm/s.
For CC(C)C[C@@H]1NC(=O)[C@H](C)N(C)C(=O)[C@H](Cc2ccccc2)NC(=O)[C@@H](CC(C)C)N(C)C(=O)[C@H]2CCCN2C(=O)[C@H](CC(C)C)NC1=O the data give PAMPA 3.7 × 10^-6 cm/s.
For CC(C)C[C@@H]1NC(=O)[C@H](C)N(C)C(=O)[C@@H]2CCCN2C(=O)[C@H](Cc2ccccc2)NC(=O)[C@@H](CC(C)C)N(C)C(=O)[C@@H]2CCCN2C(=O)[C@@H](CC(C)C)N(C)C1=O the data give PAMPA 4.8 × 10^-6 cm/s.
For CCCN1CC(=O)N[C@@H](CC(C)C)C(=O)N(C)[C@H](CC(C)C)C(=O)N2CCC[C@@H]2C(=O)N[C@H](CC(C)C)C(=O)N[C@@H](Cc2ccccc2)C1=O the data give PAMPA 6.2 × 10^-6 cm/s.
For CC(C)C[C@@H]1C(=O)N2CCC[C@H]2C(=O)N(C)[C@@H](CC(C)C)C(=O)N[C@@H](Cc2ccccc2)C(=O)N2CCC[C@@H]2C(=O)N[C@@H](C)C(=O)N(C)[C@@H](CC(C)C)C(=O)N1C the data give PAMPA 6.5 × 10^-6 cm/s.
For CC(C)C[C@@H]1NC(=O)[C@H](C)NC(=O)[C@H](Cc2ccccc2)NC(=O)[C@@H](CC(C)C)N(C)C(=O)[C@H]2CCCN2C(=O)[C@@H](CC(C)C)NC1=O the data give PAMPA 0.41 × 10^-6 cm/s.
For CC(C)C[C@@H]1NC(=O)[C@@H]2CCCN2C(=O)CN(Cc2ccccc2)C(=O)[C@H](CC(C)C)NC(=O)[C@@H](C)N(C)C(=O)[C@H](Cc2ccccc2)NC1=O the data give PAMPA 6 × 10^-6 cm/s.
For CC(C)C[C@@H]1NC(=O)C[C@H](Cc2ccccc2)NC(=O)[C@H]2CCCN2C(=O)[C@H](Cc2ccccc2)NC(=O)[C@H](CC(C)C)N(C)C(=O)[C@@H]2CCCN2C(=O)C[C@H](Cc2ccccc2)NC1=O the data give PAMPA 1.5 × 10^-6 cm/s.
For CC(C)C[C@@H]1C(=O)N[C@H](CC(C)C)C(=O)N2CCC[C@H]2C(=O)N[C@H](CC(C)C)C(=O)N[C@@H](Cc2ccccc2)C(=O)N2CCC[C@H]2C(=O)N(C)[C@@H](C)C(=O)N1C the data give PAMPA 2.8 × 10^-6 cm/s.
For CC(C)C[C@@H]1C(=O)N[C@@H](Cc2ccccc2)C(=O)N2CCC[C@H]2C(=O)N(C)[C@H](C)C(=O)N(C)[C@@H](CC(C)C)C(=O)N[C@H](CC(C)C)C(=O)N2CCC[C@@H]2C(=O)N1C the data give PAMPA 8.5 × 10^-6 cm/s.

Extract of 2 entries:

For CC(C)C[C@@H]1C(=O)N[C@@H](Cc2ccccc2)C(=O)N2CCC[C@H]2C(=O)N(C)[C@H](C)C(=O)N(C)[C@@H](CC(C)C)C(=O)N[C@H](CC(C)C)C(=O)N2CCC[C@@H]2C(=O)N1C the data give PAMPA 8.5 × 10^-6 cm/s.
For CC(C)C[C@@H]1NC(=O)[C@@H](CC(C)C)NC(=O)[C@@H](C)N(C)C(=O)[C@H]2CCCN2C(=O)[C@H](Cc2ccccc2)NC(=O)[C@H](CC(C)C)N(C)C(=O)[C@H]2CCCN2C1=O the data give PAMPA 5.9 × 10^-6 cm/s.